{
  "source": "patent US8420644B2",
  "about": "“Pharmaceutical composition intended for the prevention or for the treatment of cerebral oedemas” (Biocodex, priority 2005, dated 2013)",
  "key": {"[1]": {"tested_on": "ambulatory activity disrupted by triethyltin (TET)", "conditions": "TET 0"}, "[2]": {"tested_on": "neurological index disrupted by triethyltin (TET)", "conditions": "for Behavioural sign (neurological index): no TET"}, "[3]": {"conditions": "moclobemide 2 × 100 mg/kg/day, day 4"}, "[4]": {"conditions": "moclobemide 2 × 100 mg/kg/day, day −3, before any treatment"}, "[5]": {"conditions": "moclobemide 2 × 50 mg/kg/day, TET 0, day 0"}, "[6]": {"conditions": "moclobemide 2 × 50 mg/kg/day, TET 0, day 1"}, "[7]": {"conditions": "moclobemide 2 × 50 mg/kg/day, TET 0, day 2"}, "[8]": {"conditions": "moclobemide 2 × 50 mg/kg/day, TET 0, day 3"}, "[9]": {"conditions": "moclobemide 2 × 50 mg/kg/day, TET 0, day −3"}, "[10]": {"conditions": "moclobemide 2 × 100 mg/kg/day + TET 3 mg/kg/day, day 1"}, "[11]": {"conditions": "moclobemide 2 × 100 mg/kg/day, TET 0, day 0"}, "[12]": {"conditions": "moclobemide 2 × 100 mg/kg/day, TET 0, day 1"}, "[13]": {"conditions": "moclobemide 2 × 100 mg/kg/day, TET 0, day 2"}, "[14]": {"conditions": "moclobemide 2 × 100 mg/kg/day, TET 0, day 3"}, "[15]": {"conditions": "moclobemide 2 × 100 mg/kg/day, TET 0, day −3"}},
  "note": "Like-named read-outs stand apart in the source and are kept apart here.",
  "data": [
    {"substance": "moclobemide", "values": [
      {"measurement": "Vertical ambulatory activity (means ± esm)", "setting": "[1]; moclobemide 2 × 50 mg/kg/day, day 4", "result": "160 ± 20", "unit": "arbitrary unit"},
      {"measurement": "Vertical ambulatory activity (means ± esm)", "setting": "[1]; moclobemide 2 × 50 mg/kg/day, day −3, before any treatment", "result": "355 ± 46", "unit": "arbitrary unit"},
      {"measurement": "Horizontal ambulatory activity (means ± esm)", "setting": "[1]; [3]", "result": "776 ± 168", "unit": "arbitrary unit"},
      {"measurement": "Total ambulatory activity (means ± esm)", "setting": "[1]; [3]", "result": "1091 ± 218", "unit": "arbitrary unit"},
      {"measurement": "Vertical ambulatory activity (means ± esm)", "setting": "[1]; [3]", "result": "64 ± 17", "unit": "arbitrary unit"},
      {"measurement": "Horizontal ambulatory activity (means ± esm)", "setting": "[1]; [4]", "result": "1863 ± 276", "unit": "arbitrary unit"},
      {"measurement": "Total ambulatory activity (means ± esm)", "setting": "[1]; [4]", "result": "2599 ± 360", "unit": "arbitrary unit"},
      {"measurement": "Vertical ambulatory activity (means ± esm)", "setting": "[1]; [4]", "result": "199 ± 35", "unit": "arbitrary unit"},
      {"measurement": "Body weight (grammes ± esm)", "setting": "[5]", "result": "248 ± 3", "unit": "grammes"},
      {"measurement": "Body weight (grammes ± esm)", "setting": "[6]", "result": "247 ± 4", "unit": "grammes"},
      {"measurement": "Body weight (grammes ± esm)", "setting": "[7]", "result": "251 ± 4", "unit": "grammes"},
      {"measurement": "Body weight (grammes ± esm)", "setting": "[8]", "result": "255 ± 4", "unit": "grammes"},
      {"measurement": "Body weight (grammes ± esm)", "setting": "[9]", "result": "215 ± 3", "unit": "grammes"},
      {"measurement": "Body weight (grammes ± esm)", "setting": "[10]", "result": "240 ± 3", "unit": "grammes"},
      {"measurement": "Body weight (grammes ± esm)", "setting": "[11]", "result": "240 ± 3", "unit": "grammes"},
      {"measurement": "Body weight (grammes ± esm)", "setting": "[12]", "result": "234 ± 3", "unit": "grammes"},
      {"measurement": "Body weight (grammes ± esm)", "setting": "[13]", "result": "239 ± 4", "unit": "grammes"},
      {"measurement": "Body weight (grammes ± esm)", "setting": "[14]", "result": "238 ± 4", "unit": "grammes"},
      {"measurement": "Body weight (grammes ± esm)", "setting": "[15]", "result": "201 ± 5", "unit": "grammes"},
      {"measurement": "Neurological index (means ± esm), score 0 to 3", "setting": "[2]; moclobemide 2 × 50 mg/kg/day + TET 3 mg/kg/day, day 0", "result": 0},
      {"measurement": "Neurological index (means ± esm), score 0 to 3", "setting": "[2]; moclobemide 2 × 50 mg/kg/day + TET 3 mg/kg/day, day 1", "result": 0},
      {"measurement": "Neurological index (means ± esm), score 0 to 3", "setting": "[2]; moclobemide 2 × 50 mg/kg/day + TET 3 mg/kg/day, day 2", "result": "0.10 ± 0.10"},
      {"measurement": "Neurological index (means ± esm), score 0 to 3", "setting": "[2]; moclobemide 2 × 50 mg/kg/day + TET 3 mg/kg/day, day −3", "result": 0},
      {"measurement": "Behavioural sign (neurological index)", "setting": "[2]; moclobemide 2×50 mg/kg/day for 5 days", "result": "does not lead to any behavioural sign"},
      {"measurement": "Neurological index (means ± esm), score 0 to 3", "setting": "[2]; [5]", "result": 0},
      {"measurement": "Neurological index (means ± esm), score 0 to 3", "setting": "[2]; [6]", "result": 0},
      {"measurement": "Neurological index (means ± esm), score 0 to 3", "setting": "[2]; [7]", "result": 0},
      {"measurement": "Neurological index (means ± esm), score 0 to 3", "setting": "[2]; [8]", "result": "0.10 ± 0.10"},
      {"measurement": "Neurological index (means ± esm), score 0 to 3", "setting": "[2]; moclobemide 2 × 50 mg/kg/day, TET 0, day 4", "result": 0},
      {"measurement": "Neurological index (means ± esm), score 0 to 3", "setting": "[2]; [9]", "result": 0},
      {"measurement": "Effect of TET on the neurological index", "setting": "[2]; moclobemide 2×100 mg/kg/day + TET", "result": "inhibits the effect of TET"},
      {"measurement": "Neurological index (means ± esm), score 0 to 3", "setting": "[2]; moclobemide 2 × 100 mg/kg/day + TET 3 mg/kg/day, day 0", "result": 0},
      {"measurement": "Neurological index (means ± esm), score 0 to 3", "setting": "[2]; [10]", "result": 0},
      {"measurement": "Neurological index (means ± esm), score 0 to 3", "setting": "[2]; moclobemide 2 × 100 mg/kg/day + TET 3 mg/kg/day, day 2", "result": 0},
      {"measurement": "Neurological index (means ± esm), score 0 to 3", "setting": "[2]; moclobemide 2 × 100 mg/kg/day + TET 3 mg/kg/day, day 3", "result": "0.25 ± 0.15"},
      {"measurement": "Neurological index (means ± esm), score 0 to 3", "setting": "[2]; moclobemide 2 × 100 mg/kg/day + TET 3 mg/kg/day, day 4", "result": "0.85 ± 0.18"},
      {"measurement": "Neurological index (means ± esm), score 0 to 3", "setting": "[2]; moclobemide 2 × 100 mg/kg/day + TET 3 mg/kg/day, day −3", "result": 0},
      {"measurement": "Behavioural sign (neurological index)", "setting": "[2]; moclobemide 2×100 mg/kg/day for 5 days", "result": "does not lead to any behavioural sign"},
      {"measurement": "Neurological index (means ± esm), score 0 to 3", "setting": "[2]; [11]", "result": 0},
      {"measurement": "Neurological index (means ± esm), score 0 to 3", "setting": "[2]; [12]", "result": 0},
      {"measurement": "Neurological index (means ± esm), score 0 to 3", "setting": "[2]; [13]", "result": 0},
      {"measurement": "Neurological index (means ± esm), score 0 to 3", "setting": "[2]; [14]", "result": 0},
      {"measurement": "Neurological index (means ± esm), score 0 to 3", "setting": "[2]; moclobemide 2 × 100 mg/kg/day, TET 0, day 4", "result": 0},
      {"measurement": "Neurological index (means ± esm), score 0 to 3", "setting": "[2]; [15]", "result": 0}
    ]}
  ]
}
